# In paper PMC10868801, “Characterization of covalent inhibitors that disrupt the interaction between the tandem SH2 domains of SYK and FCER1G phospho-ITAM” (PLOS ONE, 2024):
# Target: SYK-tSH2 / FCER1G p-ITAM interaction (Homo sapiens, UniProt P43405)
# Experiment: TR-FRET assay of 6xHis-SYK-tSH2 with FITC-labeled FCER1G p-ITAM peptide
# Format: biochemical
# Conditions: read-out: TR-FRET IC50; IC50 ± standard deviation (n = 3)
row,Compound,IC50 [µM]
1,Cn1c(=O)c2ncn(C)c2n(C)c1=O,> 100
2,Cn1c(=O)c2nc(S)n(C)c2n(C)c1=O,2.93
3,Cc1n[nH]c(=O)n1C,> 100
